The series has as its system COc1ccc2cc3[n+](cc2c1OC)CCc1cc2c(cc1-3)OCO2. The experiment in a line: cells, lysate or membranes named. The conditions noted are these: 25.0 °C.

“And” between values parts separate entries of the source, which are not always exact repeats. Identical values can stand only once.

Usually Km stands for the concentration of substrate that gives half-maximal velocity. As for CYP3A4 (Homo sapiens), the Km is 27.8 ± 0.79 µM and 27.1 ± 1.03 µM.
